From patent US20020031818A1, “Modification of Mdm2 activity” (priority 2000, published 2002)

Molecular target: T1, p53 (Homo sapiens, UniProt P04637)
T1 construct: HA; expressed in transfected cells; host or cells: Mdm2/p53 double null cells
Assay: p53 level in p53/Mdm2 double null cells co-transfected with p53 and Mdm2 forms
Format: cell-based

Substance: K1: Mdm2 mutant with lysine 446 substituted for arginine
- amount of expression construct required to achieve the same decrease in the level of p53: 0.5 mg
